For this test, the target named is 5-HT1A serotonin receptor (Rattus norvegicus, UniProt P19327).

By UniProt entry, the sequences of proteins in these tests, tags left out.
UniProt P19327, whole entry: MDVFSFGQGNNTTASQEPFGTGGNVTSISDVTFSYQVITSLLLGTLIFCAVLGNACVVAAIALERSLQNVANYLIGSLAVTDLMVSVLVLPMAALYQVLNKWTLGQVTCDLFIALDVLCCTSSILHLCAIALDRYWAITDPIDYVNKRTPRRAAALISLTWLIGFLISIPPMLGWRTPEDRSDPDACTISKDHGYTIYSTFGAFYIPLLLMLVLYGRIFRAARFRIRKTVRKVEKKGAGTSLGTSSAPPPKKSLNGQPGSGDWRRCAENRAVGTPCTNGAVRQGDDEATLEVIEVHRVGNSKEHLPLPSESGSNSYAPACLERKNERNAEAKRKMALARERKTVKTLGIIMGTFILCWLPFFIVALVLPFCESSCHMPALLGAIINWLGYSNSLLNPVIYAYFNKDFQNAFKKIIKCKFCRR

This is an account of results in EP0343961B1, “Aryl- and heteroaryl piperazinyl carboxamides having central nervous system activity” (priority 1988, dated 1989).

One may read the Ki as the equilibrium dissociation constant of an inhibitor or competing ligand from its target. A high value points to a looser hold on the target.

In turn, `CC1(C)CC(=O)N(CCCCN2CCN(c3ncccn3)CC2)C(=O)C1` [Gepirone, 4,4-dimethyl-1-[4-[4-(2-pyrimidinyl)-1-piperazinyl]-butyl]-2,6-piperidinedione, reference compound] came in with a Ki of 852 nM.
